From patent US10947254B2, “Methods for treating ulcerative colitis using 3-((1R,3s,5S)-3-((7-((5-methyl-1H-pyrazol-3-yl)amino)-1,6-naphthyridin-5-yl)amino)-8-azabicyclo[3.2.1]octan-8-yl)propanenitrile” (priority 2015, dated 2021) come the findings set out here.

Amino acid sequences for entries named in this document (tags omitted). A change or cut given only in a name is not applied to a line headed by its entry.
UniProt P52333: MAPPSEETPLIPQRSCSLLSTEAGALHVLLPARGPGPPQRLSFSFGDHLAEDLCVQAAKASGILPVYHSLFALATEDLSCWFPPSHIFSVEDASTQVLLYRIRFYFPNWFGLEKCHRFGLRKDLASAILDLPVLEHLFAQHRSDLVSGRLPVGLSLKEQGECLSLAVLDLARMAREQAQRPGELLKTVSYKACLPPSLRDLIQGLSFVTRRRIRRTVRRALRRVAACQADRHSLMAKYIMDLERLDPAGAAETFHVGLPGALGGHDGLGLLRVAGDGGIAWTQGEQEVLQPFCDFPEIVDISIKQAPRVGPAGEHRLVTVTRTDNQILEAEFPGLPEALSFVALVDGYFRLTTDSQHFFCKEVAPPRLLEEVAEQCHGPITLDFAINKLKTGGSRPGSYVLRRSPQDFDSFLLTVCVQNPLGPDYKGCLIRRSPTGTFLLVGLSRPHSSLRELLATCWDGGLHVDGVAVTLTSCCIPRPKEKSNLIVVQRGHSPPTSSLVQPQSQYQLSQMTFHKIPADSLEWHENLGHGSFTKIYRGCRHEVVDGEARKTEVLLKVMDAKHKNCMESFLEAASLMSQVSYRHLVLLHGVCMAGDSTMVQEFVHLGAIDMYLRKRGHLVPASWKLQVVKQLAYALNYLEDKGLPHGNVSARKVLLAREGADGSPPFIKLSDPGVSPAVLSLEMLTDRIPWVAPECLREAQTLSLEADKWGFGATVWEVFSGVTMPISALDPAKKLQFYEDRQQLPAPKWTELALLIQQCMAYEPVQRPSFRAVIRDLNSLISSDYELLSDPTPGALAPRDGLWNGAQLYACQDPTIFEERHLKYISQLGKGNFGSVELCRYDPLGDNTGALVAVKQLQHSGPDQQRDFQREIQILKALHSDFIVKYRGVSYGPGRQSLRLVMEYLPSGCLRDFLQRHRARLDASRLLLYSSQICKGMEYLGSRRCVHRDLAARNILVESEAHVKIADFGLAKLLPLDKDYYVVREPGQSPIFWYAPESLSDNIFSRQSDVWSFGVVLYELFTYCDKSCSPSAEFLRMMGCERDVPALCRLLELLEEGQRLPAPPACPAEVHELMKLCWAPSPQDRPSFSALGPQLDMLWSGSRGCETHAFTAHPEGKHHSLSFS

The target of this assay is JAK3 (Homo sapiens (Human), UniProt P52333). Description: Biochemical JAK assay (LanthaScreen), JAK3. The procedure:
Assay 1: Biochemical JAK and Off-Target Kinase Assays
A panel of four LanthaScreen JAK biochemical assays (JAK1, 2, 3 and Tyk2) were carried in a common kinase reaction buffer (50 mM HEPES, pH 7.5, 0.01% Brij-35, 10 mM MgCl2, and 1 mM EGTA). Recombinant GST-tagged JAK enzymes and a GFP-tagged STAT1 peptide substrate were obtained from Life Technologies.
Serially diluted compounds were pre-incubated with each of the four JAK enzymes and the substrate in white 384-well microplates (Corning) at ambient temperature for 1 h. ATP was subsequently added to initiate the kinase reactions in 10 μL total volume, with 1% DMSO. […] The plates were allowed to incubate at ambient temperature for 1 h before being read on the EnVision reader (Perkin Elmer).
Results were expressed as pIC50 (negative logarithm of IC50) and subsequently converted to pKi (negative logarithm of dissociation constant, Ki) using the Cheng-Prusoff equation.
Background: In TR-FRET formats the signal depends on donor and acceptor labels being close together.

Molecules are shown by their SMILES.

On to `Cc1cc(Nc2cc3ncccc3c(N[C@@H]3C[C@H]4CC[C@@H](C3)N4C(=O)C3(C#N)CC3)n2)n[nH]1` [Example 2-8], for which the “JAK 3 (pKi)” value was “C (C represents a pKi value between 7 and 9 (Ki between 100 nM and 1 nM))”.
The value for `Cc1cc(Nc2cc3ncccc3c(N[C@@H]3C[C@H]4CCC[C@@H](C3)N4C(=O)C3(C#N)CC3)n2)n[nH]1` [Example 2-20] was “C (C represents a pKi value between 7 and 9 (Ki between 100 nM and 1 nM))”.
